The results in this text go back to patent US9296734B2 (AMGEN INC., priority 2013, dated 2016).

The chains behind the UniProt entries cited, without tags or fusion partners. Residues count along the entry.
UniProt P56817, 46-501: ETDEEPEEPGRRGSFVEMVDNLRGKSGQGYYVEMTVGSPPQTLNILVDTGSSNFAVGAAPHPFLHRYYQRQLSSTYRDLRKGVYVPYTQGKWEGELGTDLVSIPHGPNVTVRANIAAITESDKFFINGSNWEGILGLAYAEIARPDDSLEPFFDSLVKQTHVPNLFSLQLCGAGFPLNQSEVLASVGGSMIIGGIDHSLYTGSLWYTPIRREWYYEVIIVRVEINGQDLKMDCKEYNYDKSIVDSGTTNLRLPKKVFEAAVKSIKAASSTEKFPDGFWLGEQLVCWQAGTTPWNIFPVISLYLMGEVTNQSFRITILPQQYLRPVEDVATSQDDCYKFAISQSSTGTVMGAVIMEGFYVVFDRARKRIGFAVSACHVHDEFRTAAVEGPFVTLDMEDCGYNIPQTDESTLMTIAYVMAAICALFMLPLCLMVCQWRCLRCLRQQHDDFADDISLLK

Read-outs that look alike come from different tables or passages of the source.

The target of experiment [1] is Beta Secretase enzyme (BACE) (Homo sapiens (Human), UniProt P56817). The experiment is described as follows: In vitro enzymatic BACE FRET assay. It counts as biochemical. As to conditions: read-out: BACE 1 FRET assay IC50. As for the experimental part:
In Vitro Enzymatic BACE FRET (Fluorescence Resonance Energy Transfer) Assay (Enzyme Assay Data in the Example Table I)
The assay buffer used in this screen is 0.05 M acetate, pH 4.2, 10% DMSO final, 100 uM genapol (which is a nonionic detergent, below its Critical Micelle Concentration). […] This assay is effectively started by the addition of FRET substrate (50 nM) and the combination is incubated for one hour. The FRET assay is terminated with by addition of Tris buffer, which raises the pH to neutrality, and the fluorescence is determined. The FRET substrate is a peptide with commercially available fluorophore and quencher, on opposite sides of the BACE cleavage site.

The subject of experiment [2] is Aβ40 in conditioned medium of cells stably expressing Amyloid Precursor Protein (APP). The experiment can be described thus: In vitro BACE cell-based assay (Aβ40 sandwich ELISA). As to conditions: Homo sapiens. How it is done:
In Vitro BACE Cell-Based Assay
The cell-based assay measures inhibition or reduction of Aβ40 in conditioned medium of test compound treated cells expressing amyloid precursor protein.
Cells stably expressing Amyloid Precursor Protein (APP) were plated at a density of 40K cells/well in 96 well plates (Costar). The cells were cultivated for 24 hours at 37° C. and 5% CO2 in DMEM supplemented with 10% FBS. The test compounds were then added to cells in 10-point dose response concentrations with the starting concentration being either 100 μM or 10 μM. The compounds were diluted from stock solutions in DMSO and the final DMSO concentration of the test compounds on cells was 0.1%. After 24 h of incubation with the test compounds the supernatant conditioned media was collected and the Aβ 40 levels were determined using a sandwich ELISA. The IC50 of the compound was calculated from the percent of control or percent inhibition of Aβ 40 as a function of the concentration of the test compound.
The sandwich ELISA to detect Aβ 40 was performed in 96 well microtiter plates, which were pre-treated with goat anti-rabbit IgG (Pierce). The capture and detecting antibody pair that were used to detect Aβ 40 from cell supernatants were affinity purified pAb40 (Biosource) and biotinylated 6E10 (Signet Labs Inc.), respectively. The optimal concentration for the pAb40 antibody was 3 μg/ml in Superblock/TBS (Pierce) that was supplemented with 0.05% Tween 20 (Sigma).
Cellular supernatants were incubated with the capture antibody for 3 h at 4° C., followed by 3 wash steps in TBS-tween (0.05%). The detecting antibody incubation was for 2 h at 4° C., again followed by the wash steps as described previously. The final readout of the ELISA is Time-Resolved Fluorescence (counts per minute) using Delfia reagents Streptavidin-Europium and Enhancement solutions (Perkin Elmer) and the Victor 2 multilabel counter (Perkin Elmer).
For orientation: ELISA stands for enzyme-linked immunosorbent assay.

Setting [3] is: average IC50, BACE enzyme assay.
Where [4] appears, read: HEK293, average IC50, HEK cell assay, read-out: HEK cell assay IC50.
Where [5] appears, read: HEK293, read-out: HEK cell assay IC50.
Setting [6] is: HEK293, average IC50, HEK cells, read-out: HEK cell assay IC50.
Where [7] appears, read: HEK293, HEK cells, average, read-out: HEK cell assay IC50.

In general, IC50 refers to the concentration needed to halve the response being measured. Regarding `NC1=N[C@](CF)(c2cc(Nc3cc(Cl)ccn3)ccc2F)C[C@@H](C(F)(F)F)O1` [Example 16, (4S,6S)-4-(5-((4-chloropyridin-2-yl)amino)-2-fluorophenyl)-4-(fluoromethyl)-6-(trifluoromethyl)-5,6-dihydro-4H-1,3-oxazin-2-amine], the IC50 in experiment [1] (setting [3]) amounted to 23700 nM; in experiment [2] (setting [4]) it was 5820 nM.

On to `Cc1cc(Cl)cnc1C(=O)Nc1ccc(F)c([C@]2(C)C[C@@H](C(F)(F)F)OC(N)=N2)c1` (racemic) [Example 31, N-(3-((4SR,6SR)-2-amino-4-methyl-6-(trifluoromethyl)-5,6-dihydro-4H-1,3-oxazin-4-yl)-4-fluorophenyl)-5-chloro-3-methyl-2-pyridinecarboxamide], for which the IC50 stood at 16.5 nM in experiment [1] (average IC50) and 14.4 nM in experiment [2] (setting [5]).

As for `NC1=N[C@](CF)(c2cc(NC(=O)c3ccc(Br)cn3)ccc2F)C[C@@H](C(F)(F)F)O1` [Example 52, N-(3-((4S,6S)-2-amino-4-(fluoromethyl)-6-(trifluoromethyl)-5,6-dihydro-4H-1,3-oxazin-4-yl)-4-fluorophenyl)-5-bromopicolinamide], the results for the IC50 in experiment [1] (average IC50) and in experiment [2] (setting [6]) were 10 nM and 17.6 nM, respectively.

For the compound `C[C@@]1(c2nc(NC(=O)c3ncc(C#N)cc3Cl)ccc2F)C[C@@H](C(F)(F)F)OC(N)=N1` [Example 82, N-(6-((4S,6S)-2-amino-4-methyl-6-(trifluoromethyl)-5,6-dihydro-4H-1,3-oxazin-4-yl)-5-fluoropyridin-2-yl)-3-chloro-5-cyanopicolinamide], the figures for the IC50 in experiment [1] (average IC50) and in experiment [2] (setting [6]) were 18.8 nM and 4.5 nM, respectively.

In the case of `NC1=N[C@](CF)(c2cc(Nc3ncnc4cc(Cl)cnc34)ccc2F)C[C@@H](C(F)(F)F)O1` [Example 11, (4S,6S)-4-(5-((7-chloropyrido[3,2-d]pyrimidin-4-yl)amino)-2-fluorophenyl)-4-(fluoromethyl)-6-(trifluoromethyl)-5,6-dihydro-4H-1,3-oxazin-2-amine], the values for the IC50 in experiment [1] (average IC50) and in experiment [2] (setting [6]) were 27.2 nM and 63.5 nM, respectively.

For the compound `COc1cnc(C(=O)Nc2ccc(F)c([C@]3(CF)C[C@@H](C(F)(F)F)OC(N)=N3)c2)cn1` [Example 2, N-(3-((4S,6S)-2-amino-4-(fluoromethyl)-6-(trifluoromethyl)-5,6-dihydro-4H-1,3-oxazin-4-yl)-4-fluorophenyl)-5-methoxypyrazine-2-carboxamide], the values for the IC50 in experiment [1] (average IC50) and in experiment [2] (setting [6]) were 21 nM and 32 nM, respectively.

As to `NC1=N[C@](CF)(c2cc(Nc3ncc(F)c4cc(Cl)cnc34)ccc2F)C[C@@H](C(F)(F)F)O1` [Example 19, (4S,6S)-4-(5-((3-chloro-5-fluoro-1,7-naphthyridin-8-yl)amino)-2-fluorophenyl)-4-(fluoromethyl)-6-(trifluoromethyl)-5,6-dihydro-4H-1,3-oxazin-2-amine], the figures for the IC50 in experiment [1] (setting [3]) and in experiment [2] (setting [4]) were 29 nM and 552 nM, respectively.

Regarding `COc1cccnc1Nc1ccc(F)c([C@]2(CF)C[C@@H](C(F)(F)F)OC(N)=N2)c1` [Example 15, (4S,6S)-4-(2-fluoro-5-((3-methoxypyridin-2-yl)-amino)phenyl)-4-(fluoromethyl)-6-(trifluoromethyl)-5,6-dihydro-4H-1,3-oxazin-2-amine], the IC50 in experiment [1] (setting [3]) came to 165 nM; in experiment [2] (setting [4]), 122 nM.

Take `C[C@@]1(c2nc(Nc3ncc(F)c4cc(C#N)cnc34)ccc2F)C[C@@H](C(F)(F)F)OC(N)=N1` [Example 89, 8-((6-((4S,6S)-2-amino-4-methyl-6-(trifluoromethyl)-5,6-dihydro-4H-1,3-oxazin-4-yl)-5-fluoropyridin-2-yl)amino)-5-fluoro-1,7-naphthyridine-3-carbonitrile]: the figures for the IC50 in experiment [1] (average IC50) and in experiment [2] (setting [6]) were 188 nM and 383 nM, respectively.

Turning to `C[C@@]1(c2cc(NC(=O)c3ccc(Cl)cn3)cc(F)c2Cl)C[C@@H](C(F)(F)F)OC(N)=N1` [Example 236, N-(3-((4S,6S)-2-amino-4-methyl-6-(trifluoromethyl)-5,6-dihydro-4H-1,3-oxazin-4-yl)-4-chloro-5-fluorophenyl)-5-chloropicolinamide], the values for the IC50 in experiment [1] (average) and in experiment [2] (setting [7]) were 11 nM and 39 nM, respectively.

In the case of `C#CCOC1CCN(C(=O)Nc2ccc(F)c([C@]3(C)C[C@@H](C(F)(F)F)OC(N)=N3)c2)CC1` [Example 120, N-(3-((4S,6S)-2-amino-4-methyl-6-(trifluoromethyl)-5,6-dihydro-4H-1,3-oxazin-4-yl)-4-fluorophenyl)-4-(prop-2-yn-1-yloxy)piperidine-1-carboxamide], the figures for the IC50 in experiment [1] (setting [3]) and in experiment [2] (setting [4]) were 13700 nM and 1140 nM, respectively.

Take `NC1=N[C@](CF)(c2cc(Oc3ncccc3F)ccc2F)C[C@@H](C(F)(F)F)O1` [Example 94]: the IC50 stood at 398 nM in experiment [1] (average IC50) and 294 nM in experiment [2] (setting [5]).

For the compound `C[C@@]1(c2cc(NC(=O)c3ccc(C#N)cn3)cnc2F)C[C@@H](C(F)(F)F)OC(N)=N1` [Example 62, N-(5-((4S,6S)-2-amino-4-methyl-6-(trifluoromethyl)-5,6-dihydro-4H-1,3-oxazin-4-yl)-6-fluoropyridin-3-yl)-5-cyanopicolinamide], the IC50 in experiment [1] (average IC50) was 52.3 nM; in experiment [2] (setting [6]), 28.6 nM.

Turning to `C[C@@]1(c2cc(NC(=O)c3ncc(C#N)cc3Cl)cc(F)c2F)C[C@@H](C(F)(F)F)OC(N)=N1` [Example 167, N-(3-((4S,6S)-2-amino-4-methyl-6-(trifluoromethyl)-5,6-dihydro-4H-1,3-oxazin-4-yl)-4,5-difluorophenyl)-3-chloro-5-cyanopicolinamide], the IC50 in experiment [1] (setting [3]) came out at 30 nM; in experiment [2] (setting [4]), 5.7 nM.

`COc1cnc(C(=O)Nc2cc(F)c(Cl)c([C@]3(C)C[C@@H](C(F)(F)F)OC(N)=N3)c2)cn1` [Example 237, N-(3-((4S,6S)-2-amino-4-methyl-6-(trifluoromethyl)-5,6-dihydro-4H-1,3-oxazin-4-yl)-4-chloro-5-fluorophenyl)-5-methoxypyrazine-2-carboxamide]: the half-inhibitory concentration (IC50) in experiment [1] (average) is 29 nM; in experiment [2] (setting [7]) it was 13 nM.

For the compound `CC#CCOc1ccc(C(=O)Nc2cc(F)c(F)c([C@]3(CF)C[C@@H](C(F)(F)F)OC(N)=N3)c2)nc1` [Example 160, N-(3-((4S,6S)-2-amino-4-(fluoromethyl)-6-(trifluoromethyl)-5,6-dihydro-4H-1,3-oxazin-4-yl)-4,5-difluorophenyl)-5-(but-2-yn-1-yloxy)picolinamide], the IC50 in experiment [1] (setting [3]) came to 3.5 nM; in experiment [2] (setting [4]) it was 21 nM.

In the case of `Cc1cc(NC(=O)c2ccc(C(F)F)cn2)cc([C@]2(CF)C[C@@H](C(F)(F)F)OC(N)=N2)c1F` [Example 221, N-(3-((4S,6S)-2-amino-4-(fluoromethyl)-6-(trifluoromethyl)-5,6-dihydro-4H-1,3-oxazin-4-yl)-4-fluoro-5-methylphenyl)-5-(difluoromethyl)picolinamide], the 50% inhibitory concentration (IC50) in experiment [1] (average) worked out at 73 nM; in experiment [2] (setting [7]), 33 nM.

Consider `N#Cc1cnc2c(Nc3cc(F)c(F)c([C@]4(CF)C[C@@H](C(F)(F)F)OC(N)=N4)c3)nccc2c1` [Example 162, 8-((3-((4S,6S)-2-amino-4-(fluoromethyl)-6-(trifluoromethyl)-5,6-dihydro-4H-1,3-oxazin-4-yl)-4,5-difluorophenyl)amino)-1,7-naphthyridine-3-carbonitrile], for which the IC50 in experiment [1] (setting [3]) stood at 37 nM; in experiment [2] (setting [4]), 271 nM.

In the case of `C[C@@]1(c2cc(NC(=O)N3CCc4ccccc4C3)ccc2F)C[C@@H](C(F)(F)F)OC(N)=N1` [Example 121, N-(3-((4S,6S)-2-amino-4-methyl-6-(trifluoromethyl)-5,6-dihydro-4H-1,3-oxazin-4-yl)-4-fluorophenyl)-3,4-dihydroisoquinoline-2(1H)-carboxamide], the IC50 amounted to 7530 nM in experiment [1] (setting [3]) and 687 nM in experiment [2] (setting [4]).

`CC#Cc1cncc(-c2ccc(F)c([C@]3(CF)C[C@@H](C(F)(F)F)OC(N)=N3)c2)c1` [Example 104, (4S,6S)-4-(2-fluoro-5-(5-(prop-1-yn-1-yl)pyridin-3-yl)phenyl)-4-(fluoromethyl)-6-(trifluoromethyl)-5,6-dihydro-4H-1,3-oxazin-2-amine]: the IC50 in experiment [1] (setting [3]) is 318 nM; in experiment [2] (setting [4]), 1250 nM.
